From PubChem BioAssay AID1851 (National Center for Advancing Translational Sciences (NCATS), 2009) come the findings set out here.

Protein sequences, listed by entry. Tags and fused reporters are not part of them.
UniProt P11712, whole entry, looked up: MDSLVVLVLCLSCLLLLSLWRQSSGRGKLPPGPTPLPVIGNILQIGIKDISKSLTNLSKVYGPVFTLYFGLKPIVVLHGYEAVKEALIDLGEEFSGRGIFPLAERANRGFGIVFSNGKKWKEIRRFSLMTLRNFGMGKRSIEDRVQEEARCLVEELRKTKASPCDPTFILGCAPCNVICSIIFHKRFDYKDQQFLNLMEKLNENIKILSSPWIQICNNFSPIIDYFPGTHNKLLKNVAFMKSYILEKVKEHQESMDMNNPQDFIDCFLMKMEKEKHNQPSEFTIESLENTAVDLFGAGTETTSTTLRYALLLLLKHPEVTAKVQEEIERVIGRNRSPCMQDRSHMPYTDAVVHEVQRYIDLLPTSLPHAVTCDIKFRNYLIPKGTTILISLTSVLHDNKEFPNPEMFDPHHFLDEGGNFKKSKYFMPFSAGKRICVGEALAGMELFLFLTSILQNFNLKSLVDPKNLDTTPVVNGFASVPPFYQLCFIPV

The hits were mostly taken out for another list; the other results follow. Results filed as inconclusive are left out. Active and inactive are the calls of the source. Calls follow the shape of the dose curve; as a rule, active = well fitted curve in the direction sought with a large enough effect; inconclusive = small, poorly fitted or top-dose-only effect, or effect the other way; inactive = no such curve, though single readings can be large or run the other way.
% is scaled to controls: 0 for no effect and ±100 for the full control effect.

The test deals with Cytochrome P450 2C9 (Homo sapiens) (UniProt P11712). Nature of the test: Cytochrome panel assay with activity outcomes. The following applies: recombinant CYP, pro-luciferin dealkylation, luminescence, p450-cyp2c9; series mostly up to 57.1 µM; activity, negative = inhibition: at the top concentration.
As to `O=C(c1cnccn1)N1CCC[C@@]2(CCN(c3ccccc3)C2)C1`, the “activity, negative = inhibition” value was inactive: -2.17%. The same measure, in the same setting: in the case of `O=C(c1csnn1)N1CCC[C@@]2(CCN(c3ccccn3)C2)C1` it was inactive: -0.623%; in that of `COc1cccc(Cn2c(=O)cnc3cnc(OCc4ccccc4)nc32)c1`, inactive: -21.4%; in that of `O=C(c1cnccn1)N1CCC[C@@]2(CCN(Cc3nccs3)C2)C1`, inactive: 0.582%. Same read-out and setting: to `COc1ccc(NC(=O)N2CC[C@@]3(CCCN(C(=O)c4csnn4)C3)C2)cc1` belongs inactive: 4.14%. On the same count and under the same terms, in the case of `CC(C)CN1CCC2(CC1)CCN(C(=O)c1csnn1)CC2` it was inactive: 7.55%; in that of `O=C(c1csnn1)N1CCC[C@@]2(CCN(c3ccncc3)C2)C1`, inactive: -8.62%. `O=C(c1ccco1)N1CCC2(CC1)CCN(c1cccc(-c3ccccc3)c1)CC2`: the “activity, negative = inhibition” value was inactive: -29.1%.

By AC50 is commonly meant the midpoint of the concentration-response curve, whichever way the signal moves. Take `C#C[C@]1(O)CC[C@@H]2[C@H]3CCC4=Cc5oncc5C[C@]4(C)[C@@H]3CC[C@@]21C`: the concentration at half-maximal activity (AC50) was active: 1260 nM. Turning to `COc1ccc(-n2c(=O)c(-c3cccs3)nc3cnc(Nc4ccccc4)nc32)cc1`, the “activity, negative = inhibition” value is inactive: 18.1%. `O=C(Nc1cccc(F)c1)N1CC[C@@]2(CCCN(C(=O)c3ccco3)C2)C1`: the “activity, negative = inhibition” value was inactive: -5.03%. On the same count and under the same terms, in the case of `N#CCCn1c(=O)c(-c2ccc(Cl)cc2)nc2cnc(OCc3ccccc3)nc21` it was inactive: -15.1%; in that of `CC(C)NC(=O)N1CCC2(CC1)CCN(C(=O)c1csnn1)CC2`, inactive: 1.81%.

With `C#C[C@]1(O)CC[C@H]2[C@H]3CCC4=Cc5oncc5C[C@]4(C)[C@@H]3CC[C@]21C`, the “activity, negative = inhibition” value was inactive: 10.1%. Same read-out and setting: in the case of `O=C(c1csnn1)N1CCC2(CC1)CCN(C(c1ccccc1)c1ccccc1)CC2` it was inactive: -19.1%; in that of `COc1ccccc1CN1CCCC2(CCN(C(=O)c3csnn3)CC2)C1`, inactive: 12.8%.

Consider `Cc1nc2cnc(Oc3ccccc3)nc2n(CCC#N)c1=O`, for which the “activity, negative = inhibition” value was inactive: -23.8%. On the same count and under the same terms, to `O=C(Nc1cccc(F)c1)N1CC[C@@]2(CCCN(S(=O)(=O)c3ccccc3)C2)C1` belongs inactive: -27.9%; to `COCCn1c(=O)c(CCc2ccccc2)nc2cncnc21`, inactive: -27.4%; to `COCCn1c(=O)c(-c2cccc(C#N)c2)nc2cnc(Nc3ccccc3)nc21`, inactive: -11.8%. Consider `Cn1c(=O)cnc2cnc(Oc3ccccc3)nc21`, for which the “activity, negative = inhibition” value was inactive: -8.83%. Take `COc1ccccc1CN1CCC2(CC1)CCN(C(=O)c1csnn1)CC2`: the “activity, negative = inhibition” value is inactive: -4.34%. Consider `O=C(Oc1ccccc1)N1CCC2(CCCN(c3cccc(-c4ccccc4)c3)C2)CC1`, for which the “activity, negative = inhibition” value is inactive: -8.86%. Consider `COCCn1c(=O)c(-c2ccccc2)nc2cncnc21`, for which the “activity, negative = inhibition” value is inactive: -4.04%. On the same count and under the same terms, in the case of `O=C(c1csnn1)N1CCC[C@@]2(CCN(c3ncccn3)C2)C1` it was inactive: -10.7%; in that of `N#Cc1ccc(CN2CCC3(CC2)CCN(C(=O)c2csnn2)CC3)cc1`, inactive: 10.6%. `COC(=O)N1CCC2(CC1)CN(c1cccc(-c3ccccc3)c1)C2`: the “activity, negative = inhibition” value is inactive: 2.16%.
